Values quoted from earlier work in article PMC8995271 (Targeted Oncology, 2022).

Tested on: HER1
Details: read-out: half maximal inhibitory concentration for inhibiting the phosphorylation of HER1; ref [17], [23]–[26]; cited from earlier work

## CS(=O)(=O)CCNCc1ccc(-c2ccc3ncnc(Nc4ccc(OCc5cccc(F)c5)c(Cl)c4)c3c2)o1 [lapatinib]
  IC50: 10.8 nM
